Target: Kappa-type opioid receptor (Cavia porcellus) (UniProt P41144)
Assay: Agonist potency of compound was evaluated towards kappa opioid receptor in absence of antagonist in guinea pig ileum(GPI)

Protein sequences, listed by entry. Tags and fused reporters are not part of them. Lines headed by an entry give the natural chain unless they say otherwise; changes in a name come on top.
UniProt P41144: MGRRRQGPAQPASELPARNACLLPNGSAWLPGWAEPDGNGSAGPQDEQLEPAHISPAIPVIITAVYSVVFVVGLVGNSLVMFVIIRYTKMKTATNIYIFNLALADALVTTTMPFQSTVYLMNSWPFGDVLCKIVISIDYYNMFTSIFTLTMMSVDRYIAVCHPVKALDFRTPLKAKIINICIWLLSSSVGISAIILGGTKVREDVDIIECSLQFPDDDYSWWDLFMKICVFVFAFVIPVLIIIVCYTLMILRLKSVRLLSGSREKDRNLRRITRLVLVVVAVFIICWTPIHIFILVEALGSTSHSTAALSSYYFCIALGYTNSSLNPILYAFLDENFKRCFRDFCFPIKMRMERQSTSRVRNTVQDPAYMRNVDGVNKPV

SMILES: CN(C(=O)Cc1ccc(Cl)c(Cl)c1)[C@H](CN1CCCC1)c1cccc(N=C=S)c1
- Ke: 0.3 nM
